# Binding of CDR-mutated scFvs to a peptide of the spike HR2 region

Source: Li et al. 2023 (doi:10.1038/s41467-023-39022-2), MIT Lincoln Laboratory and A-Alpha Bio; data file from the FLAb repository.

All variants were tested on one target, the spike HR2 peptide PDVDLGDISGINAS (SARS-CoV-2).

Parent scFv Ab-14: VH joined to VL by a (GGGGS)3 linker. Changes lie in the heavy chain CDRs alone.
VH: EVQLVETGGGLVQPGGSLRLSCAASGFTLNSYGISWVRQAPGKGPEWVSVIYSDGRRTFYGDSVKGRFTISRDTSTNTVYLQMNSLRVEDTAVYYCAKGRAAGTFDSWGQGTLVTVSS
VL: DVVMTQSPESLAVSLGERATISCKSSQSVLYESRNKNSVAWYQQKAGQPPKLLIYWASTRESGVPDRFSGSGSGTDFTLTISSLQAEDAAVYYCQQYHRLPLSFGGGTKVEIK

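The variants were designed computationally from a first round of random CDR variants and then made and measured. Group labels follow the data file (Ctrl: baseline library sampled from a position-specific scoring matrix, with some repeated check sequences; Rand: our label for a block that the file lists under HC and that is probably the random mutants of the ten best first-round binders; En: ensemble of fine-tuned language models; GP: Gaussian process model; GPLM: also part of the Gaussian process libraries; HC: hill climbing; Gen: genetic algorithm; Gibbs: Gibbs sampling; a sequence that several methods proposed may carry one label only). The assay is AlphaSeq: two haploid yeast populations carry antibody and antigen on their surface. Mating (16 h, 30 °C) was followed by selection of diploids and sequencing of their barcodes. The ratio of observed to expected reads was calibrated, replicate by replicate, on BCL2-family standards whose Kd was known from biolayer interferometry. Mating was done six times.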

Variants are written as CDR1, CDR2 and CDR3 of the heavy chain (limits as in the source). Parent: GFTLNSYGIS, VIYSDGRRTFYGDSVK, GRAAGTFDS. Scale: log10 of Kd in nM, estimated from mating counts; low values are strong binders. The mean shown is taken over the replicates in which the pair was detected. "not detected" marks a missing value. The strain was present, yet no cells mated with the target were sequenced in any replicate, which points to weak or no binding. Order: sorted from the lowest average up, undetected variants last.

| # | CDR-H1 | CDR-H2 | CDR-H3 | group | mean, log10 nM | seen in |
|---|---|---|---|---|---|---|
| 1 | GFDLNEYGIS | VIYADGMRTAYADSVK | GEVAGTFDM | En_Gen | -0.76 | 6 of 6 |
| 2 | GFTLNSYGIS | VIYSDGKRTFYDDSVK | GLLAGTFDS | GP_HC | -0.72 | 1 of 6 |
| 3 | GFDLESYGIS | VIYADGSRTAYADSVK | GNVAGTFNV | En_HC | -0.70 | 5 of 6 |
| 4 | GFDLNEYGIS | VIYSDGRRTFYGDSVK | GRNAGTFDS | GP_Gen | -0.60 | 6 of 6 |
| 5 | GFDLNEYGIS | VIYADGRRTFYADKVK | GEVAGTFDV | En_HC | -0.58 | 6 of 6 |
| 6 | GFDLNEYGIS | VIYADGMRTAYTDSVK | GGNAGTFDI | En_Gen | -0.57 | 6 of 6 |
| 7 | GFDLNEYGIS | VIYADGRRTFYADSVK | GEIAGTFDE | En_HC | -0.56 | 6 of 6 |
| 8 | GFDLNEYGIS | VIYADGVRTFYADSVK | GNLAGTFDQ | En_HC | -0.52 | 6 of 6 |
| 9 | GFTLDEYGIS | VIYADGRRTFYQDSVK | GNVAGTFDT | En_HC | -0.51 | 6 of 6 |
| 10 | GFDLDEYGIS | VIYADGVRTAYSDSVK | GTNAGTFDV | En_Gen | -0.45 | 6 of 6 |
| 11 | GFDLNEYGIS | VIYADGKRTAYVDDVK | GNQAGTFDV | En_Gen | -0.44 | 6 of 6 |
| 12 | GFSLNSYGIS | VIYSDGRRTFYGDSVK | GSAAGTFDK | GPLM_Gibbs | -0.43 | 6 of 6 |
| 13 | GFDINEYGIS | VIYADGRRTFYADSVK | GNQAGTFDV | En_HC | -0.42 | 6 of 6 |
| 14 | GFDLNEYGIS | VIYADGMRTFYADDVK | GNEAGTFDV | En_Gen | -0.41 | 6 of 6 |
| 15 | GFDLDEYGIS | VIYADGMRTAYADSVK | GEVAGTFDQ | En_Gen | -0.35 | 6 of 6 |
| 16 | GFDLNEYGIS | VIYADGRRTAYADSVK | GNVAGTFDM | En_Gen | -0.29 | 6 of 6 |
| 17 | GFDLNEYGIS | VIYADGMRTAYSDSVK | GDNAGTFDV | En_Gen | -0.21 | 6 of 6 |
| 18 | GFDLDEYGIS | VIYADGMRTAYSDSVK | GNEAGTFDV | En_Gen | -0.20 | 6 of 6 |
| 19 | GFDLNEYGIS | VIYADGRRTAYSDSVK | GNVGGSFDV | En_HC | -0.20 | 6 of 6 |
| 20 | GFNLDEYGIS | VIYADGRRTFYADSVK | GQVAGTFDL | En_HC | -0.18 | 6 of 6 |
| 21 | GLTLNSYGIS | VIYADGRRTFYGDSVK | GRAAGTFDS | Ctrl | -0.08 | 6 of 6 |
| 22 | GFTLNDYGIS | VIYSDGLRTWYIDSVK | GRAAGTFDS | GP_HC | -0.02 | 3 of 6 |
| 23 | GFTLEEYGIS | VIYSDGRRTFYQDSVK | GVAAGTFDS | Ctrl | 0.00 | 6 of 6 |
| 24 | GFDLDEYGIS | VIYADGMRTAYADKVK | GETAGTFDV | En_Gen | 0.04 | 6 of 6 |
| 25 | GFELNEYGIS | VIYSDGRRTFYGDSVK | GRTAGTFDK | GPLM_Gen | 0.12 | 6 of 6 |
| 26 | GFALNEYGIS | VIYSDGRRTFYGDSVK | GRAAGTFDS | Ctrl | 0.20 | 6 of 6 |
| 27 | GFDLEEYGIS | VIYADGQRTFYSDSVK | GENAGTFDV | En_HC | 0.20 | 6 of 6 |
| 28 | GFDLNSYGIS | VIYSDGRRTFYSDSVK | GSAAGTFDS | GP_Gen | 0.20 | 6 of 6 |
| 29 | GFDLNSYGIS | VIYSDGRRTFYQDDVK | GKAAGTFDS | GP_Gen | 0.33 | 6 of 6 |
| 30 | GFSLNSYGIS | VIYSDGRRTFYADSVK | GSMAGTFDS | GPLM_Gen | 0.45 | 6 of 6 |
| 31 | GFSLNSYGIS | VIYSDGRRTFYGDSVK | GREAGTFDD | GPLM_Gen | 0.73 | 6 of 6 |
| 32 | GFHLNDYGIS | VIYSDGRRTFYGDSVK | GQAAGTFDS | Ctrl | 1.14 | 5 of 6 |
| 33 | GFNLNTYGIS | VIYSDGRRTFYVDSVK | GEAAGTFDS | GP_Gibbs | 1.19 | 6 of 6 |
| 34 | GFTLNSYGIS | VIYSDGRRTFYSDSVK | GVEGGTFDS | GP_HC | 1.25 | 6 of 6 |
| 35 | GFTLNSYGIS | VIYSDGRRTFYGDDVK | GWAAGTFDS | Ctrl | 1.38 | 2 of 6 |
| 36 | GFTLNSYGIS | VIYSDGRRTFIGDSVK | GRAAGTFDS | Ctrl | 1.59 | 1 of 6 |
| 37 | GFTLNDYGIS | VIYSDGRRTFYSDSVK | GRGAGTFDS | GP_HC | 1.71 | 6 of 6 |
| 38 | GFELNSYGIS | VIYSDGRRTFYGDSVK | GKHAGTFDS | GPLM_Gibbs | 1.87 | 5 of 6 |
| 39 | GFTLNEYGIS | VIYSDGRRTFYGDSVK | GCIAGTFDL | GP_HC | 1.87 | 1 of 6 |
| 40 | GFTLNEYGIS | VIYSDGRRTFYSDSVK | GRAAGTFTS | GPLM_HC | 1.91 | 5 of 6 |
| 41 | GFTLNSYGIS | VIYSDGRRTFYGDSVR | GWAAGYADP | Ctrl | not detected | 0 of 6 |
| 42 | AFNLEDYGIS | VIYADGVRASYVESVK | GGLAGTFVI | En_Gibbs | not detected | 0 of 6 |
| 43 | GFTLNSYGIS | VIYSDGRRCSYNDSVK | GRAAGWFFS | Ctrl | not detected | 0 of 6 |
| 44 | GFDIEDYGIS | VIYADGKRSAYSNSFK | GLMAGNMMV | En_Gibbs | not detected | 0 of 6 |
| 45 | GFQLDEFGIS | VIYADGKRSSYVDDVK | GEGTGAFSV | En_Gibbs | not detected | 0 of 6 |
| 46 | TFTLNSHGIS | VIYSDGRRTFYTDSVK | GREAGTFDG | Ctrl | not detected | 0 of 6 |
| 47 | GNDINEYGIS | VIYADGMRTAYLNDVK | GQMGGLFIM | En_Gibbs | not detected | 0 of 6 |
| 48 | GFTLNYYGIS | VIYSYGRRTFYSDSVK | GMAGGTFDS | Rand | not detected | 0 of 6 |
| 49 | GFTLNQYGIS | VIYSDGRRTFWSDSVK | GRTAGFFDS | Rand | not detected | 0 of 6 |
| 50 | GFTLNSYGIS | VIYSDGRRTFYGDSVK | GRAAGTFDE | Ctrl | not detected | 0 of 6 |
| 51 | GFDLGEYGIS | VIYADGVRKSYAQKVK | GKNGAISYV | En_Gibbs | not detected | 0 of 6 |
| 52 | GFTLNTYGIS | VIYADGRRTFYGDSVK | GRRRGTFDS | Ctrl | not detected | 0 of 6 |
| 53 | GFTLNSYGIS | VIYSDGRRTFYIDSVK | GRIADTFDS | Ctrl | not detected | 0 of 6 |
| 54 | GFSLDEYGVS | VIYADGLRTQYTNDVK | GLYSFAFKM | En_Gibbs | not detected | 0 of 6 |
| 55 | GFDIEEYGIS | VIYADGVRTMYTPNVK | GNITGLAMT | En_Gibbs | not detected | 0 of 6 |
| 56 | GFDLNSYGIS | VIYSDGRRTFYGDSVK | GRATGWFNQ | Rand | not detected | 0 of 6 |
| 57 | GKSLNEYGIS | VIYSDGRRTFYGDWVK | GRTAGTFDS | GP_Gibbs | not detected | 0 of 6 |
| 58 | GFDLNSYGIS | VIYSDGRRTFYQDSVK | GRVAGTFDS | GP_Gen | not detected | 0 of 6 |

A selection of 7 entries from above:

| CDR-H1 | CDR-H2 | CDR-H3 | group | mean, log10 nM | seen in |
|---|---|---|---|---|---|
| GLTLNSYGIS | VIYADGRRTFYGDSVK | GRAAGTFDS | Ctrl | -0.08 | 6 of 6 |
| GFDLNEYGIS | VIYADGKRTAYVDDVK | GNQAGTFDV | En_Gen | -0.44 | 6 of 6 |
| GFDLNEYGIS | VIYSDGRRTFYGDSVK | GRNAGTFDS | GP_Gen | -0.60 | 6 of 6 |
| GFSLNSYGIS | VIYSDGRRTFYADSVK | GSMAGTFDS | GPLM_Gen | 0.45 | 6 of 6 |
| GFNLDEYGIS | VIYADGRRTFYADSVK | GQVAGTFDL | En_HC | -0.18 | 6 of 6 |
| GFDLDEYGIS | VIYADGMRTAYSDSVK | GNEAGTFDV | En_Gen | -0.20 | 6 of 6 |
| GFDLNEYGIS | VIYADGRRTFYADSVK | GEIAGTFDE | En_HC | -0.56 | 6 of 6 |

The range of this assay differs from that of the first round, and the authors advise against merging the two. Of ten entries with the parent sequence, four were seen in most replicates (averages 0.34 to 2.37), three in one and three in none, so single entries are noisy. Three control strains display no target. For all heavy chain designs, 1% of the pairings with them gave a signal, with a median of 2.08 and one signal in twenty below 0.84, so weak values seen in few replicates may be background. The authors averaged sequences with at least three values out of six and counted those with two or fewer as poor binders.